According to US8268635B2, “Methods of identifying agents that selectively activate p38 and/or NKkB signaling” (priority 2006, dated 2012):
“Also recorded” adds a separate entry of the source.

Experiments:
GCKR/GLK = GCKR/GLK activity in adherent neutrophils; assay type: cell-based, human
Method: GCKR was immunoprecipitated from cell lysates and activity assayed using myelin basic protein (MBP) as the substrate. […] Results shown are the means+−sem of 3 experiments; (c) Expression of ASK-1 in HEK293T cells and neutrophils as determined by Western blot analysis of cell lysates. […] Activation of ASK-1 was determined by kinase autophosphorylation. A representative digital radiogram from 3 experiments is shown.
KHS (hereon referred to as “GCKR”) activity was assayed as described previously using myelin basic protein as a substrate (Shi, C. S., Leonardi, A., Kyriakis, J., Siebenlist, U., and Kerhl, J. H. (1999) J. Immunol. 163: 3279-3285). ASK-1 activation was determined in immunoprecipitates of ASK-1 by autophosphorylation (Kyriakis, J. M., and Auruch, J. (2001) Physiol. Rev. 81: 807-869). p38 and ERK activities were determined as described using myelin basic protein as a substrate (Hii, C. S., Huang, Z. H., Bilney, A., Costabile, M., Murray, A. W., Rathjen, D. A., Der, C. J., and Ferrante, A. (1998) J. Biol. Chem. 273: 19277-19282). […] Phosphorylated ASK-1, myelin basic protein and GST-jun (1-79) were fractionated on 8, 16 and 12% SDS polyacrylamide gels, respectively, and the bands were detected and radioactivity determined using an Instant Imager (Packard Instruments, Canberra, Australia). […]

p38 [1] = experiment: p38 kinase activity in human neutrophils; assay type: cell-based; conditions: 5 min; TNF 100 or 1000 U/ml, TNF70-80 10-50 μM
Description: The blots were stripped and reprobed with anti-JNK1 antibody which detected the p46-kDa JNK1 isotype in each lane. […] The cells were lysed and the lysate assessed by western blot analysis for the level of dual-phosphorylated ERK1/ERK2 (top panel) and ERK2 protein (bottom panel). […] The level of myelin basic protein phosphorylation was quantitated by an Instant Imager. Results presented (a and b) are from one experiment, representative of three-four experiments, each conducted using cells from a different donor. […]
KHS (hereon referred to as “GCKR”) activity was assayed as described previously using myelin basic protein as a substrate (Shi, C. S., Leonardi, A., Kyriakis, J., Siebenlist, U., and Kerhl, J. H. (1999) J. Immunol. 163: 3279-3285). ASK-1 activation was determined in immunoprecipitates of ASK-1 by autophosphorylation (Kyriakis, J. M., and Auruch, J. (2001) Physiol. Rev. 81: 807-869). p38 and ERK activities were determined as described using myelin basic protein as a substrate (Hii, C. S., Huang, Z. H., Bilney, A., Costabile, M., Murray, A. W., Rathjen, D. A., Der, C. J., and Ferrante, A. (1998) J. Biol. Chem. 273: 19277-19282). […]
Neutrophils (1×10^7) were then added and further incubated for 30 min at 37° C. […] The level of myelin basic protein phosphorylation was quantitated by an Instant Imager. […]

p38 [2] = experiment: p38 activation in 70Z/3 cells transfected with hTNFR1 constructs; assay type: cell-based, mouse
Method: FIG. 5(a) and (b) show the inability of TNF70-80 to stimulate p38 activation in cells lacking a TNFR. […] The cells were then lysed, protein contents quantified and subjected to p38 kinase assay by Western blot. The results are presented as the mean+−sem of 3 experiments.
The cells were maintained in RPMI-1640 medium with 4.5 g/L glucose, 2 mM L-glutamine, […] 2-mercaptoethanol and 10% FCS in an atmosphere of 95% air and 5% CO2. Cells were plated onto 10 cm plates at 4×10^7 cells in 15 ml culture medium. Before performing transient transfection, plasmid DNA (hTNFR1), kindly provided by Dr M. Kronke, Institute of Medical Microbiology and Hygiene, Medical Center University of Cologne, Koln, Germany (Adam, D., Wiegmann, K., Adam-Klages, S., Ruff A., and Kronke, M. (1996) J. Biol. Chem. 271: 14617-22), (20 μg in 1 ml of RPMI1640) was mixed with LipofectAMINE 2000 (Invitrogen) (60 μl in 1 ml of RPMI) and the mixture were left at room temperature for 20 min. The mixture was directly added to the cells and incubated for 24 h. The cells were washed twice with HBSS before use.
However, the role of the TNFR in the action of the peptide remained to be clearly defined.
We have made deletion mutants in which C1, C1+C2+C3 and all four cysteine-rich domains are deleted. […] The data imply that the remaining extracellular sequence juxtaposed to the plasma membrane is sufficient for TNF70-80 to stimulate p38 activity.

TNF: Human recombinant TNF produced by Genentech, Inc.
GCKR activity in neutrophils pre-adhered to non-coated surfaces (GCKR/GLK; non-coated surfaces, data not shown): failed to stimulate the activity of either GCKR or JNK
GCKR/GLK activity in adherent neutrophils (GCKR/GLK; plasma-coated dishes, 15 min, TNF 1000 U/ml, TNF70-80 10 μM): stimulated the activity of GCKR/GLK
activity of p38 in neutrophils in suspension (p38 [1]): enhanced the activity of p38
p38 activity in 70Z cells transfected with an empty vector (p38 [2]): did not stimulate the activity of p38
p38 activity in 70Z cells, TNF receptor with C1-C3 deleted (p38 [2]): greatly diminished
p38 activity in 70Z cells, TNF receptor with C1-C4 deleted (p38 [2]): not able to stimulate kinase activity
p38 activity in 70Z cells, TNF receptor with C1 domain deleted (p38 [2]): able to stimulate the activity of p38
p38 activation in 70Z/3 cells transfected with wild type hTNFR1 (p38 [2]; 5 min, TNF 1000 U/ml, peptides 10 μM): caused the activation of p38; also recorded: stimulated the activity of p38 in cells transfected with wild type receptors
p38 activation in non-transfected 70Z/3 cells (p38 [2]; cells lacking TNFR, 5 min, TNF 1000 U/ml, peptides 10 μM): neither TNF nor TNF70-80 activated p38
